Data taken from ChEMBL document CHEMBL3612054 (Bioorg Med Chem, 2015).
The source made the active and inactive calls.

Protein sequences, listed by entry. Tags and fused reporters are not part of them. Lines headed by an entry give the natural chain unless they say otherwise; changes in a name come on top.
UniProt P35372, whole entry: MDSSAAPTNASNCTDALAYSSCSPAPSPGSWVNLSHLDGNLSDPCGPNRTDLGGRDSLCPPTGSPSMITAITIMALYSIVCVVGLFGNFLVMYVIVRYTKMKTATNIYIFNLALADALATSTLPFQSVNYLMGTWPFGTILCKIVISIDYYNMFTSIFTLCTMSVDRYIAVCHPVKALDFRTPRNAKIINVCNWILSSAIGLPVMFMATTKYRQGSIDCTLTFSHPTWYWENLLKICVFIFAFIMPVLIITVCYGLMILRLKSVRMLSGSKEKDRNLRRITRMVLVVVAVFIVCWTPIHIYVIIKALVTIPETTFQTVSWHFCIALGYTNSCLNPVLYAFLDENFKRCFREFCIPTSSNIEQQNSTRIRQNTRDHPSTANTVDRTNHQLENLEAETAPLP
UniProt P41143, whole entry: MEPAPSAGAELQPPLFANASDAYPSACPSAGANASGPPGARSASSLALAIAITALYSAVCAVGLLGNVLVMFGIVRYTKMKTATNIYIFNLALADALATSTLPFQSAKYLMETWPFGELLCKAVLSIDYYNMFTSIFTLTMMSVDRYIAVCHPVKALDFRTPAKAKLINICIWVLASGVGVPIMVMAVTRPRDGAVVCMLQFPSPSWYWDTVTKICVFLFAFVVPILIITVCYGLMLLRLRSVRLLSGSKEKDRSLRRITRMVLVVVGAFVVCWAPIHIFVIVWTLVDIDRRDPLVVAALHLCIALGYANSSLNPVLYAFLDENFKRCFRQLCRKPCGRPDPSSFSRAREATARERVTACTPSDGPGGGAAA
UniProt P41145: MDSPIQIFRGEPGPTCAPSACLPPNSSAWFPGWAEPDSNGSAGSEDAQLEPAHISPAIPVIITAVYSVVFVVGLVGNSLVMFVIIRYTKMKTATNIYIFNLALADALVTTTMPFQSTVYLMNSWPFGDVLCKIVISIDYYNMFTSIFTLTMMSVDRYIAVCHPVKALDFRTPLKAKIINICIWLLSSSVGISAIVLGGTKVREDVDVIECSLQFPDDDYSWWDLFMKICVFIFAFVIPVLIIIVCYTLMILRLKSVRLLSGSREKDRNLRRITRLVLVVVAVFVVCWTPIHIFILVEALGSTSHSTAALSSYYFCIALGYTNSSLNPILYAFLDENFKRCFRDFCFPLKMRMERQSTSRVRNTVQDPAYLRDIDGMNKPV

What was measured:
Format in all cases: functional
[1] = biological target: Mu-type opioid receptor (Homo sapiens) (UniProt P35372); experiment: Agonist activity at cloned human mu opioid receptor at 10 uM by [35S]GTPgammaS binding assay
[2] = biological target: Delta-type opioid receptor (Homo sapiens) (UniProt P41143); experiment: Agonist activity at cloned human delta opioid receptor at 10 uM by [35S]GTPgammaS binding assay
[3] = biological target: Kappa-type opioid receptor (Homo sapiens) (UniProt P41145); experiment: Agonist activity at cloned human kappa opioid receptor at 10 uM by [35S]GTPgammaS binding assay

Measured: Activity

CC(C)[C@@H](CN1CCC(C)(c2cccc(O)c2)CC1)NC(=O)[C@H]1Cc2ccc(O)cc2CN1
inactive: all assays above
